The values that follow come from ChEMBL document CHEMBL1134201, “Exploring the relationship between binding modes of 9-(aminomethyl)-9,10-dihydroanthracene and cyproheptadine analogues at the 5-HT2A serotonin receptor” (Bioorg Med Chem Lett, 2001).

Protein sequences, listed by entry. Tags and fused reporters are not part of them.
UniProt P14842, whole entry: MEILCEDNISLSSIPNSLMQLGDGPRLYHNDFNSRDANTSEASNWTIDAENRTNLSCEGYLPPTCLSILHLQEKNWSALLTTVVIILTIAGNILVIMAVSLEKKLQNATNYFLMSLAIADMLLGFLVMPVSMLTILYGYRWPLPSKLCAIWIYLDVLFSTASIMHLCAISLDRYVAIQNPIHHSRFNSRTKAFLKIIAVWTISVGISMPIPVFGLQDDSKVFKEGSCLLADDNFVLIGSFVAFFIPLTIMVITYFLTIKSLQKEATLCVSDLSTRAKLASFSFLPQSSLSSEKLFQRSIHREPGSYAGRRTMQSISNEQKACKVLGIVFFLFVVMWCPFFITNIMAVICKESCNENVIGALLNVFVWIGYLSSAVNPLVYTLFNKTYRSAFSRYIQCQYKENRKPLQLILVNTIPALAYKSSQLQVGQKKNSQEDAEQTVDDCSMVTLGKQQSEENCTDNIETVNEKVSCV

SMILES strings stand for the structures.

In this experiment the target is 5-hydroxytryptamine receptor 2A (Rattus norvegicus, UniProt P14842). Nature of the experiment: Binding affinity against 5-hydroxytryptamine 2A receptor expressed NIH3T3 cells using [3H]ketanserin. It counts as cell-based.

A word on the Ki: it is a dissociation constant, usually derived from enzyme kinetics or from competition with a known ligand.

`NCC1c2ccccc2C=Cc2ccccc21` gave a Ki of 4.12 µM.
For `NCC1c2ccccc2-c2ccccc21`, the Ki was found to be 20.8 µM.
